High-throughput results as filed in PubChem.
PglD inh = PglD (C. jejuni) enzyme inhibition | purified PglD enzyme, DTNB colorimetric CoA detection | inhibition, % at 12.5 µM | hit rate 0.098% among 360,000; in the data active = inhibition above about 16%, passing the limit was not always enough
Tn7 DDE FP = disrupts Tn7 cyclic peptide binding to fibrin D-Dimer-E complex | inhibition, % at 8.3 µM | FP displacement of FITC-Tn7 peptide from fibrin DD(E); 0% = median of compound wells per plate | AID 720508 | hit rate 0.13% among 370,000 | P02675;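 active = inhibition above the mean of compounds falling within the control limits plus 3 SD of them, cut at about 14% in these data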;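 note: 0% = plate median of compound wells and 100% = 10 µM Aha-Tn7 peptide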
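Test system: human clot-derived fibrin DD(E) complex / Quantity: 2 µM final DD(E) protein / Incubation: 10 min plus 3 h, room temperature / Measured by: fluorescence polarization / Benchmarks: high control of 10 µM Aha-Tn7 peptide / Replicates: singlicate testing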
Yeast UUG start = modulators of start codon recognition fidelity in yeast; AID 602363; hit rate 0.13% among 350,000; activity score, % at 18.7 µM; S. cerevisiae UUG-firefly luciferase reporter, luminescence/redox ratio;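 active = replicate mean at a twofold rise or more, about +100% in these data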;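 note: firefly luciferase made from a UUG start codon reports start codon fidelity; reporter light over untreated wells divided by growth signal over untreated wells; some hits fall short of that in this replicate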
Tn6 DDE FP = disrupts Tn6 cyclic peptide binding to fibrin D-Dimer-E complex; hit rate 0.21% among 370,000; inhibition, % at 8.3 µM; Fibrin DD(E) TRITC-Tn6 fluorescence polarization displacement;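 active = inhibition above a per-campaign cutoff: mean of compounds within control limits plus 3 SD, cut at about 15% in these data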;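 note: 0% = median of all compound wells on the plate and 100% = blocking peptide control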
Tn7 DDE conf = confirmation of inhibitors of Tn7 binding to human fibrin DD(E); shares compounds with Tn7 DDE FP; FP displacement of TRITC-Tn7 peptide from DD(E); 0% set at plate's compound-well median; inhibition, % at 8.3 µM; hit rate 5% among 460;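 active = inhibition above the campaign cutoff, the mean of compounds within control limits plus 3 SD, cut at about 14% in these data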;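 note: 100% = median FP of high control wells holding Aha-Tn7 inhibitor peptide; displacers lower polarization since freed probe rises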
Tn7 DDE ctr = counter-screen for inhibitors of Tn7 peptide binding to fibrin DD(E); shares compounds with Tn7 DDE FP; inhibition, % at 8.3 µM; TRITC-Tn7 probe displacement, fluorescence polarization; hit rate 3% among 460;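 active = inhibition above the cutoff, the mean of compounds lying between the control bounds plus 3 SD of those compounds, cut at about 17% in these data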;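 note: 0% = median of compound sample wells and 100% = excess unlabeled Aha-Tn7 peptide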
Numbers without * were called inactive; · = not tested or not shown. Most compounds without a hit are left out; they make up all but 0.45% or so of the library.

Screens by letter – A = PglD inh; B = Tn7 DDE FP; C = Yeast UUG start; D = Tn6 DDE FP; E = Tn7 DDE conf; F = Tn7 DDE ctr
Structure: CNC[C@@H]1Oc2ncc(C#CC3(O)CCCC3)cc2C(=O)N([C@@H](C)CO)C[C@H]1C
  A: -2; B: ·; C: 9; D: ·; E: ·; F: ·
Structure: COCCN(C(=O)c1ccc(-c2ccc(Cl)cc2)o1)c1c(N)n(CC(C)C)c(=O)[nH]c1=O
  A: 0; B: 0; C: -3; D: -3; E: ·; F: ·
Structure: COCCN(C(=O)c1ccc(-c2ccc([N+](=O)[O-])cc2)o1)c1c(N)n(CC(C)C)c(=O)[nH]c1=O
  A: 4; B: 14*; C: -11; D: 0; E: 5; F: 2
Structure: O=c1[nH]c(-[n+]2ccccc2)c(/C=N/NC([S-])=Nc2ccccc2)s1
  A: ·; B: 15*; C: ·; D: -2; E: 10; F: 6
Structure: Cc1cc[n+](-c2[nH]c(=O)sc2/C=N/NC([S-])=Nc2ccccc2)cc1
  A: ·; B: 6; C: ·; D: -5; E: ·; F: ·
Structure: O=c1[nH]c(-[n+]2ccc3ccccc3c2)c(/C=N/N=C(\[O-])c2ccccc2)s1
  A: 1; B: 17*; C: -15; D: -8; E: -1; F: -16
Structure: CNC[C@H]1OCCCC[C@@H](C)Oc2ccc(NC(=O)Nc3ccc4c(c3)OCO4)cc2C(=O)N([C@H](C)CO)C[C@@H]1C
  A: -1; B: ·; C: -10; D: ·; E: ·; F: ·
Structure: O=C(O)Cn1nc(-c2ccc(F)cc2)oc1=O
  A: -5; B: -5; C: -24; D: 2; E: ·; F: ·
Structure: CCOC(=O)Cn1nc(-c2ccc(F)cc2)oc1=O
  A: ·; B: 14*; C: ·; D: 2; E: 0; F: -1
Structure: O=C(NC1CCN(S(=O)(=O)c2ccc(Cl)cc2)CC1)C1CCCCC1
  A: 4; B: 14*; C: -7; D: 3; E: -1; F: -6
Structure: C#CCn1cc(/C=N/NC(=O)COc2cccc3cccnc23)c2ccccc21
  A: 5; B: 14*; C: -13; D: 1; E: -4; F: -20
Structure: COc1ccc(S(=O)(=O)N2CCCCN3[C@H](CO)[C@H](c4ccc(C#CC(C)C)cc4)[C@H]3C2)cc1
  A: -11; B: ·; C: 4; D: ·; E: ·; F: ·
Structure: CC(=O)Nc1ccc(NC(=O)[C@@H](NC(=O)c2ccccc2F)C(C)C)cc1
  A: 11; B: 15*; C: -12; D: 10; E: 3; F: 3
Structure: C[C@@H]1CN([C@@H](C)CO)C(=O)Cc2cc(NC(=O)NC3CCCCC3)ccc2O[C@H]1CN(C)CC1CC1
  A: -8; B: ·; C: -5; D: ·; E: ·; F: ·
Structure: COc1ccccc1N(CC(=O)NCCSCc1ccccc1)S(C)(=O)=O
  A: -1; B: 14*; C: -26; D: 2; E: -2; F: -5
Structure: O=C(Nc1ccccc1F)N1CCCCN2[C@H](CO)[C@@H](c3ccc(C4=CCCCC4)cc3)[C@H]2C1
  A: 6; B: ·; C: 3; D: ·; E: ·; F: ·
Structure: c1coc(-c2nnc(SCc3cn4ccccc4n3)o2)c1
  A: -1; B: 14*; C: -23; D: 0; E: -1; F: 0
Structure: C[C@@H]1CCCCO[C@H](CN(C)S(=O)(=O)c2ccc(Cl)cc2)[C@@H](C)CN([C@@H](C)CO)C(=O)c2cc(NC(=O)Nc3cccc4ccccc34)ccc2O1
  A: 0; B: ·; C: 6; D: ·; E: ·; F: ·
Structure: COc1ccc(OC)c(S(=O)(=O)Nc2ccc(CC(=O)O)cc2)c1
  A: -3; B: 17*; C: -20; D: -1; E: 3; F: 4
Structure: COc1ccc(OC)c(S(=O)(=O)Nc2ccc(OCC(=O)O)cc2)c1
  A: 2; B: -8; C: -22; D: -3; E: ·; F: ·
Structure: O=C(N[C@H]1CC[C@@H](CCNS(=O)(=O)Cc2ccccc2)O[C@@H]1CO)c1ccccc1F
  A: 1; B: ·; C: 7; D: ·; E: ·; F: ·
Structure: CC1=CC(c2ccc(Cl)cc2)n2nc(NS(=O)(=O)c3ccc(C)cc3)nc2N1 (stereo not given)
  A: -3; B: 14*; C: -26; D: 14; E: 5; F: 2
Structure: CC1=CC(c2ccccc2)n2nc(NS(=O)(=O)c3ccc(C)cc3)nc2N1 (stereo not given)
  A: 2; B: 11; C: -16; D: -1; E: ·; F: ·
Structure: C[C@@H]1CCCCO[C@H](CN(C)C(=O)C2CCCCC2)[C@H](C)CN([C@@H](C)CO)C(=O)c2cc(NS(=O)(=O)c3ccc(F)cc3)ccc2O1
  A: -1; B: ·; C: 3; D: ·; E: ·; F: ·
Structure: CCOC(=O)c1oc2cccc(O)c2c1C
  A: -7; B: -3; C: -23; D: -2; E: ·; F: ·
Structure: CCOC(=O)c1oc2cccc(O)c2c1CN(Cc1ccccc1)C(C)=O
  A: 4; B: 14*; C: -8; D: 8; E: 7; F: -1
Structure: O=C(CCCCCN1C(=O)c2ccccc2C1=O)Nc1ccccc1
  A: 0; B: 2; C: -23; D: -2; E: ·; F: ·
Structure: CC(=O)Nc1ccc(NC(=O)CCCCCN2C(=O)c3ccccc3C2=O)cc1
  A: -2; B: 14*; C: -9; D: 3; E: -5; F: -5
Structure: COc1ccc(NC(=O)C(c2cc3c(cc2[N+](=O)[O-])OCO3)N(C)c2ccccc2)cc1 (stereo not given)
  A: ·; B: 15*; C: ·; D: 2; E: -5; F: -5
Structure: CO[C@H](CN(C)C(=O)c1ccccc1F)[C@@H](C)CN([C@@H](C)CO)S(=O)(=O)c1ccccc1
  A: 4; B: ·; C: ·; D: ·; E: ·; F: ·
Structure: O=C(N[C@@H]1CC[C@@H](CCNS(=O)(=O)c2ccc(F)cc2)O[C@H]1CO)c1cnccn1
  A: 0; B: ·; C: 0; D: ·; E: ·; F: ·
Structure: COc1ccc(/C=C2\CCc3c2nc2ccccc2c3C(=O)O)cc1OC
  A: ·; B: 23*; C: ·; D: -10; E: -6; F: -13
Structure: CC(C)NC(=O)N(C)C[C@H]1Oc2c(NC(=O)Nc3cccc4ccccc34)cccc2C(=O)N([C@H](C)CO)C[C@H]1C
  A: 0; B: ·; C: -4; D: ·; E: ·; F: ·
Structure: Fc1cccc(CCN2C(=S)NC[C@@H]2Cc2ccccc2)c1
  A: -2; B: 15*; C: -17; D: 2; E: 4; F: 1
Structure: COc1ccc(OC)c(/C=C/C(=O)OCC(=O)Nc2nnc(-c3ccccc3)o2)c1
  A: 4; B: 14*; C: 2; D: 1; E: 7; F: 1
Structure: C[C@@H]1CN([C@H](C)CO)C(=O)c2cc(-c3cccc(C#N)c3)cnc2O[C@H]1CN(C)Cc1ccncc1
  A: -1; B: ·; C: -4; D: ·; E: ·; F: ·
Structure: CCCCN(C)C(=O)c1cc2cc3ccc(OC)cc3nc2s1
  A: -3; B: 15*; C: -42; D: -2; E: 4; F: 5
Structure: CCCCN(CC)C(=O)c1cc2cc3ccc(OC)cc3nc2o1
  A: 5; B: 4; C: -5; D: -5; E: ·; F: ·
Structure: Nc1ccc2nc3c(=O)n(C4CCCCC4)c(=O)[nH]c3nc2c1
  A: ·; B: 27*; C: ·; D: 8; E: -6; F: 7
Structure: Cc1cc2nc3c(=O)n(CCc4ccccc4)c(=O)[nH]c3nc2cc1N
  A: 0; B: 23*; C: -13; D: -5; E: 7; F: 5
Structure: CCCCn1c(=O)[nH]c2nc3cc(N)ccc3nc2c1=O
  A: -2; B: 25*; C: -32; D: 8; E: -12; F: 0
Structure: Nc1ccc2nc3c(=O)n(CCc4ccccc4)c(=O)[nH]c3nc2c1
  A: 3; B: 8; C: -10; D: -1; E: ·; F: ·
Structure: CCCCn1c(N)c(Br)c(=O)[nH]c1=O
  A: -1; B: 1; C: -26; D: -1; E: ·; F: ·
Structure: O=C1C=C(NNC(=O)c2cccnc2)CC(c2ccco2)C1 (stereo not given)
  A: ·; B: 16*; C: ·; D: -8; E: -1; F: -14
Structure: CC1(C)CC(=O)C=C(NNC(=O)c2cccnc2)C1
  A: 0; B: 9; C: -3; D: 5; E: ·; F: ·
Structure: COc1ccccc1NC(=O)CSc1nnc(COc2ccccc2OC)n1C
  A: ·; B: 14*; C: ·; D: 0; E: 4; F: 2
Structure: CCc1ccc(CNC(=O)c2cc3c(C)nc4ccccc4c3o2)cc1
  A: 3; B: 14*; C: -4; D: -1; E: -3; F: -11
Structure: COc1cccc(CNC(=O)c2cc3c(C)nc4ccccc4c3o2)c1
  A: 2; B: 3; C: 5; D: -2; E: ·; F: ·

In the list so far, these contain two or more sulfur atoms:
Screens by letter – A = PglD inh; B = Tn7 DDE FP; C = Yeast UUG start; D = Tn6 DDE FP; E = Tn7 DDE conf; F = Tn7 DDE ctr
Structure: O=c1[nH]c(-[n+]2ccccc2)c(/C=N/NC([S-])=Nc2ccccc2)s1
  A: ·; B: 15*; C: ·; D: -2; E: 10; F: 6
Structure: Cc1cc[n+](-c2[nH]c(=O)sc2/C=N/NC([S-])=Nc2ccccc2)cc1
  A: ·; B: 6; C: ·; D: -5; E: ·; F: ·
Structure: COc1ccccc1N(CC(=O)NCCSCc1ccccc1)S(C)(=O)=O
  A: -1; B: 14*; C: -26; D: 2; E: -2; F: -5
